For this test, the system named is SNB75 cells. As to the kind of experiment: Alamar blue viability assay in SNB75 cells. Format: cell-based, human. The settings on record: read-out: EC50 of SMC therapy; SNB75, with low dose of VSVΔ51 (0.1 MOI). For orientation: Resazurin is reduced to fluorescent resorufin, in cell work by metabolically active cells.

Consider `CN[C@@H](C)C(=O)N[C@H](C(=O)N1CCC[C@H]1c1nc(C(=O)c2ccc(F)cc2)cs1)C1CCCCC1` [LCL161], for which the EC50 came out at 21.9 nM.

By EC50 is commonly meant the concentration at which the effect is half-maximal.

Values taken from patent US10441654B2 (priority 2014, dated 2019).
